Data: the kinase profiling compilation of Christmann-Franck et al. (2016)

The chains behind the UniProt entries cited, without tags or fusion partners. Where a name states a change or a piece, a line headed by the entry shows the natural chain unless it says otherwise.
UniProt Q8N5S9: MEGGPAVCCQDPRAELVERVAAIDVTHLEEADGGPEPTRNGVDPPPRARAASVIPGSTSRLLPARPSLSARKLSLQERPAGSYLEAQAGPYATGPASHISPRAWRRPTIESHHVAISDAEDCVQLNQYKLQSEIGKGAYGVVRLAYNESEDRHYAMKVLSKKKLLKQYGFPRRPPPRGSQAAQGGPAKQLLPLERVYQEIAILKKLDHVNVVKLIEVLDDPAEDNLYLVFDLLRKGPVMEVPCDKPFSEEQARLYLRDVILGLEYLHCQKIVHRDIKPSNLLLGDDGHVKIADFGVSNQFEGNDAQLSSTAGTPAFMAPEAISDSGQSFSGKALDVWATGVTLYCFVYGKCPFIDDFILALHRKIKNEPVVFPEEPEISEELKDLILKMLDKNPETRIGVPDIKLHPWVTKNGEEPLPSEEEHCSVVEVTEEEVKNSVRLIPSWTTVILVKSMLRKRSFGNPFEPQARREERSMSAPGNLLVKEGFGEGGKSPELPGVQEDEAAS
UniProt P48730: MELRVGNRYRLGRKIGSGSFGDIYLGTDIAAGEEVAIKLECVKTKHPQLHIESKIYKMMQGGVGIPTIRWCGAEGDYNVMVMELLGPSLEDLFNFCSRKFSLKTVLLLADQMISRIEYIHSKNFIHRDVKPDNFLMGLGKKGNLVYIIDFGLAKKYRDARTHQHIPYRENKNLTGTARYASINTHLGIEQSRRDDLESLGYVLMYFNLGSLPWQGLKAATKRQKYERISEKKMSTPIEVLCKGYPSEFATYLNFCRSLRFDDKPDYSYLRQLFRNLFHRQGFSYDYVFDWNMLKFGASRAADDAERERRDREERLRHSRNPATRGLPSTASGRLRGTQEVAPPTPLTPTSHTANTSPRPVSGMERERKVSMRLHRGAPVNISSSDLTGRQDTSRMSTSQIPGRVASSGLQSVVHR
UniProt P29322: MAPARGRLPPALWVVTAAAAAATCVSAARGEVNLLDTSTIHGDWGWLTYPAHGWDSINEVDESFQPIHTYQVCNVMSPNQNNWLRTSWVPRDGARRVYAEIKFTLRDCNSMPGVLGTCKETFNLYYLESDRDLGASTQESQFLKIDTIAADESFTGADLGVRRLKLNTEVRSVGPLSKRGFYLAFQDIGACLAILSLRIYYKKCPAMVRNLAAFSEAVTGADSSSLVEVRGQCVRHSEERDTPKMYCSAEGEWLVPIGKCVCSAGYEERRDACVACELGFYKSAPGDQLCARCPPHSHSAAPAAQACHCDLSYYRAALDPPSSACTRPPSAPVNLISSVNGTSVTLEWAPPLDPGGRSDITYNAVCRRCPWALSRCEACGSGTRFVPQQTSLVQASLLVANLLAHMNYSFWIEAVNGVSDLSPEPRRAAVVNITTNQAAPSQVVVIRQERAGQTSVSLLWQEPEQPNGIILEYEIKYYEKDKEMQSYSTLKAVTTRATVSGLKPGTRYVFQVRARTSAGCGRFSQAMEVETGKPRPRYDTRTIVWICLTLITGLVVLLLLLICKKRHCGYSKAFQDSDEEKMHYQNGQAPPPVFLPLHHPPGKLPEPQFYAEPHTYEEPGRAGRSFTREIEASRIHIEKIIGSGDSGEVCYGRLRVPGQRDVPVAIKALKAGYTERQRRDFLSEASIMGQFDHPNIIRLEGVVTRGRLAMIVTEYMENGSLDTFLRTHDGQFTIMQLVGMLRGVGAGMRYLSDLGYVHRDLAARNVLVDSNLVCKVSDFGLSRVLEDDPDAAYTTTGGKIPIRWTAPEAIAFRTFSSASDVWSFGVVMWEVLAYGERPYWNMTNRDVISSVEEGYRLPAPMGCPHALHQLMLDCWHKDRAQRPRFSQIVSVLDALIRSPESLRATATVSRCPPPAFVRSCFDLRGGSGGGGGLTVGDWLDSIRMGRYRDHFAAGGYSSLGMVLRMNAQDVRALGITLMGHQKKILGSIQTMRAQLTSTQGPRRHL
UniProt O95819: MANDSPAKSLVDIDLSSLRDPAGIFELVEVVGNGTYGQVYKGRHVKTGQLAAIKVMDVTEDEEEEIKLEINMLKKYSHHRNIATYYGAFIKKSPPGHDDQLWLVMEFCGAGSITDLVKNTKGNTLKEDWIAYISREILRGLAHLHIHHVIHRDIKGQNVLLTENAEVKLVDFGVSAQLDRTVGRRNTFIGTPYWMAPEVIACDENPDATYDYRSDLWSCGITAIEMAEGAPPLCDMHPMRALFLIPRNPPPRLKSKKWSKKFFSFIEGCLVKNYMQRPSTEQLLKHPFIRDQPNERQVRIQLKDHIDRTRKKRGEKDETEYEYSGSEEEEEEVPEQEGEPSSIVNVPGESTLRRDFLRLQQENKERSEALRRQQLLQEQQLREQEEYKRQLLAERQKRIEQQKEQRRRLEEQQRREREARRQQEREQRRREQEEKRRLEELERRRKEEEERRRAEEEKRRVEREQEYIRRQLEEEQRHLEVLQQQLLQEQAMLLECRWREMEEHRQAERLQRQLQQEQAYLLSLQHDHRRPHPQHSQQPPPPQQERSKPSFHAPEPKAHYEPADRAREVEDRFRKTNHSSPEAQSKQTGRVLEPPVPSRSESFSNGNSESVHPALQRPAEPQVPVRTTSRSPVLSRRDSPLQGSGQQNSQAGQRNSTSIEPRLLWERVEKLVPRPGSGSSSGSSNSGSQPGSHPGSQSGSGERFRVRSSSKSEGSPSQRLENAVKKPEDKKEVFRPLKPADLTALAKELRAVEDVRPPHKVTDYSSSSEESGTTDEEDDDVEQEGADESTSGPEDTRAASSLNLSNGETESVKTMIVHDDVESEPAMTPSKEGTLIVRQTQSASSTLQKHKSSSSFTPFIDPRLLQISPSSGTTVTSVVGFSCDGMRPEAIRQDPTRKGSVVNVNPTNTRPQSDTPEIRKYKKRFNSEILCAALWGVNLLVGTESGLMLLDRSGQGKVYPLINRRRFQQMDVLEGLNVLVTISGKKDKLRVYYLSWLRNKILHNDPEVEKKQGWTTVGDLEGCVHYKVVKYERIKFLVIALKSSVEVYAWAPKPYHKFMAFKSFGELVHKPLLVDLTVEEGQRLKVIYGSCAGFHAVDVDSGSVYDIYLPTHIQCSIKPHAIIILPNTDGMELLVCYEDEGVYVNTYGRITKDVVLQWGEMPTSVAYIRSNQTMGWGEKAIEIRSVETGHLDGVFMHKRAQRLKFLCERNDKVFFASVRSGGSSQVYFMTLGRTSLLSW
UniProt O75914, whole entry, looked up: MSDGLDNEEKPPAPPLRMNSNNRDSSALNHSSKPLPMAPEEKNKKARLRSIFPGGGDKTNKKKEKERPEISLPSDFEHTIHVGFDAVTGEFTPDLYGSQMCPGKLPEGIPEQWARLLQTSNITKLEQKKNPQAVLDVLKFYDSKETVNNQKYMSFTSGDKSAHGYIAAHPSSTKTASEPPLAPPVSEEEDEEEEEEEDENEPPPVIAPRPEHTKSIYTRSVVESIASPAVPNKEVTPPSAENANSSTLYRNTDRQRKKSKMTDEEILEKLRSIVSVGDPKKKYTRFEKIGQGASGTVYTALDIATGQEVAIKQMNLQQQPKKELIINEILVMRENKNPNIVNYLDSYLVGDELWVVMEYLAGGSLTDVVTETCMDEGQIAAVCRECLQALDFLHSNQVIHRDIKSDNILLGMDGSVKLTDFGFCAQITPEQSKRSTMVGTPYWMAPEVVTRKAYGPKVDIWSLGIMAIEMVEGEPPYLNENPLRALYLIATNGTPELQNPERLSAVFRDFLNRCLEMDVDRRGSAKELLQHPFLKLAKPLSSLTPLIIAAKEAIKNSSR
UniProt Q13976: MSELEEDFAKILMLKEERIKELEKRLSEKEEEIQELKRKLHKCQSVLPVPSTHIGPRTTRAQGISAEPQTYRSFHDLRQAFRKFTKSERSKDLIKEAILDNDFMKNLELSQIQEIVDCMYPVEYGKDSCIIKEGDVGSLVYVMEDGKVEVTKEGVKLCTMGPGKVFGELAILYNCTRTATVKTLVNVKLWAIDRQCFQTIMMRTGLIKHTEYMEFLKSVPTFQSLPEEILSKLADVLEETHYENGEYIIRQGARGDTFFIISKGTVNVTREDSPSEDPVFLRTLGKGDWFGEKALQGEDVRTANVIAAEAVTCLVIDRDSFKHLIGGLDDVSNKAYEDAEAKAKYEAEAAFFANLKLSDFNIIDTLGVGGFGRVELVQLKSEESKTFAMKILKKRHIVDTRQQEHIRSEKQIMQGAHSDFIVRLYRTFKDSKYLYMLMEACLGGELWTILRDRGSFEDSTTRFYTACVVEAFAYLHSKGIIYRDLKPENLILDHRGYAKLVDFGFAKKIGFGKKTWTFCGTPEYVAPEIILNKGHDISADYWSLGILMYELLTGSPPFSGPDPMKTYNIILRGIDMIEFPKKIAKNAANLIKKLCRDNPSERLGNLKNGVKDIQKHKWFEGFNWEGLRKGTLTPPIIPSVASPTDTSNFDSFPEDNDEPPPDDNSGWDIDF
UniProt O75116: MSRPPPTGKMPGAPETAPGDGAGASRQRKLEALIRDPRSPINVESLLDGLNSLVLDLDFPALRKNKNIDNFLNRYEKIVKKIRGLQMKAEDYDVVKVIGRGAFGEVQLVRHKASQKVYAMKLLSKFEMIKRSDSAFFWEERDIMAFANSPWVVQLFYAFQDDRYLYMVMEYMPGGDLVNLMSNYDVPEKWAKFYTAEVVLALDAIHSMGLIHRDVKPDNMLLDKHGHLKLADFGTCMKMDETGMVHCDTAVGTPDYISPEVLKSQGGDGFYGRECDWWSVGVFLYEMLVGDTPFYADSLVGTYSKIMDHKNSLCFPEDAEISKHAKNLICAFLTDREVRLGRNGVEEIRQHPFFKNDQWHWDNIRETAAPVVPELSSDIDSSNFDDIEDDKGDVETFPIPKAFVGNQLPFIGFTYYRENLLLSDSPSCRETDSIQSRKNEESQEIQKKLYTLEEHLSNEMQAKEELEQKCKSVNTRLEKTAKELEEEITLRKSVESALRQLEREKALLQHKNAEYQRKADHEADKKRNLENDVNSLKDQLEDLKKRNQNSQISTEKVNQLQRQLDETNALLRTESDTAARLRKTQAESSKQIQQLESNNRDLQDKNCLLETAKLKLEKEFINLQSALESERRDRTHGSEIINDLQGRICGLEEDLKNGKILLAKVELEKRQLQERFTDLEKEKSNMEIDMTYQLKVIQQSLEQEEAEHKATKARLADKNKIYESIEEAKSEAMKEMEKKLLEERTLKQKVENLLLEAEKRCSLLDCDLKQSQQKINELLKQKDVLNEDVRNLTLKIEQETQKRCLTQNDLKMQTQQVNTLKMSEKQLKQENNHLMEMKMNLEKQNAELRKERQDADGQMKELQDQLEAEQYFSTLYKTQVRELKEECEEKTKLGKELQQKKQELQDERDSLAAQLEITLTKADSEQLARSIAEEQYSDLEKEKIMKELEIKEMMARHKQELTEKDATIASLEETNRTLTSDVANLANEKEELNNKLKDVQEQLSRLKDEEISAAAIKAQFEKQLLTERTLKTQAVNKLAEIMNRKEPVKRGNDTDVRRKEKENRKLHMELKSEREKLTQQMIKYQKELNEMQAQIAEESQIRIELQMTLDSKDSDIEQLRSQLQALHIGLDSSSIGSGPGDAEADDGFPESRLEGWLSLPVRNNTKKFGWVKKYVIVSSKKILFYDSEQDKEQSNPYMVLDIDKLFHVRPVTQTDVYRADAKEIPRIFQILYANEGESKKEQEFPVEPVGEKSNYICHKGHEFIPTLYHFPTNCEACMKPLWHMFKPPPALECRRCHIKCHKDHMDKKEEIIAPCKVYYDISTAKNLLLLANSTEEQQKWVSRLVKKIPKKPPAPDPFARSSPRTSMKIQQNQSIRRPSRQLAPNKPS
UniProt Q9UPE1, whole entry, looked up: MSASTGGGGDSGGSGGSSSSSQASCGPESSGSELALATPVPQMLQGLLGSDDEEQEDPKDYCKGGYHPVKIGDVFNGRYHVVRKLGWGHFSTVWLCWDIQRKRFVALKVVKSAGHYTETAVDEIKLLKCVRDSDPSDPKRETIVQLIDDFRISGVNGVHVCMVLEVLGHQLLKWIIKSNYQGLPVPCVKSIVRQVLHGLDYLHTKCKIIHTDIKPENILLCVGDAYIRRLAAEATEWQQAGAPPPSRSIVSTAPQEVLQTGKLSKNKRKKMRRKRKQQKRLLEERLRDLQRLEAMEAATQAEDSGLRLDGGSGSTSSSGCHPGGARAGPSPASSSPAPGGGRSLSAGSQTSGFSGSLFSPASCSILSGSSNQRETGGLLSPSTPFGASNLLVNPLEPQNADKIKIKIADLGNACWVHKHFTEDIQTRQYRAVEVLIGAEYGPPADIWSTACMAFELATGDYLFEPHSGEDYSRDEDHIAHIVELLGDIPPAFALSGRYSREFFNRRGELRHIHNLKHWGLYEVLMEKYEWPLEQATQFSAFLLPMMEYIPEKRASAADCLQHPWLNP

Key:
Experiment in all cases: radiometric filter-binding kinase assay, Kinase HotSpot
Details in all cases: compound 0.5 µM; ATP 10 µM
BRAF (human) = BRAF (human) (UniProt P15056)
CAMK1G (human) = CAMK1G (human) (UniProt Q96NX5)
CAMK2A (human) = CAMK2A (human) (UniProt Q9UQM7)
CAMKK1 (human) = CAMKK1 (human) (UniProt Q8N5S9)
CLK2 (human) = CLK2 (human) (UniProt P49760)
CSNK1D (human) = CSNK1D (human) (UniProt P48730)
CSNK2A1 (human) = CSNK2A1 (human) (UniProt P68400)
EPHA8 (human) = EPHA8 (human) (UniProt P29322)
IKBKB (human) = IKBKB (human) (UniProt O14920)
JAK2 JH1 JH2 (human) = JAK2 JH1 JH2 (human) (UniProt O60674)
JAK3 JH1 JH2 (human) = JAK3 JH1 JH2 (human) (UniProt P52333)
LCK (human) = LCK (human) (UniProt P06239)
LIMK1 (human) = LIMK1 (human) (UniProt P53667)
LRRK2 (human) = LRRK2 (human) (UniProt Q5S007)
MAP3K5 (human) = MAP3K5 (human) (UniProt Q99683)
MAP3K9 (human) = MAP3K9 (human) (UniProt P80192)
MAP4K4 (human) = MAP4K4 (human) (UniProt O95819)
MAPK10 (human) = MAPK10 (human) (UniProt P53779)
MAPK9 (human) = MAPK9 (human) (UniProt P45984)
MARK4 (human) = MARK4 (human) (UniProt Q96L34)
MERTK (human) = MERTK (human) (UniProt Q12866)
MET (human) = MET (human) (UniProt P08581)
MINK1 (human) = MINK1 (human) (UniProt Q8N4C8)
NEK3 (human) = NEK3 (human) (UniProt P51956)
OXSR1 (human) = OXSR1 (human) (UniProt O95747)
PAK3 (human) = PAK3 (human) (UniProt O75914)
PIM2 (human) = PIM2 (human) (UniProt Q9P1W9)
PRKCI (human) = PRKCI (human) (UniProt P41743)
PRKD3 (human) = PRKD3 (human) (UniProt O94806)
PRKG1 (human) = PRKG1 (human) (UniProt Q13976)
ROCK1 (human) = ROCK1 (human) (UniProt Q13464)
ROCK2 (human) = ROCK2 (human) (UniProt O75116)
RPS6KA6 KD1 KD2 (human) = RPS6KA6 KD1 KD2 (human) (UniProt Q9UK32)
SGK2 (human) = SGK2 (human) (UniProt Q9HBY8)
SRPK3 (human) = SRPK3 (human) (UniProt Q9UPE1)
TAOK2 (human) = TAOK2 (human) (UniProt Q9UL54)
TAOK3 (human) = TAOK3 (human) (UniProt Q9H2K8)
TGFBR1 (human) = TGFBR1 (human) (UniProt P36897)
TSSK1B (human) = TSSK1B (human) (UniProt Q9BXA7)
TSSK2 (human) = TSSK2 (human) (UniProt Q96PF2)
[1] = molecular target: TYK2 JH1 catalytic (human) (UniProt P29597)
VRK1 (human) = VRK1 (human) (UniProt Q99986)

SMILES: CO[C@H]1[C@@H](OC)C[C@H](C)[C@@H](OC)C2=CC(=O)C=C(NC(=O)/C(C)=C\C=C/[C@H](OC)[C@@H](OC(N)=O)/C(C)=C\[C@@H]1C)C2=O
- residual activity (BRAF (human)): 95.7%
- residual activity (CAMK1G (human)): 105%
- residual activity (CAMK2A (human)): 98.3%
- residual activity (CAMKK1 (human)): 119%
- residual activity (CLK2 (human)): 89.3%
- residual activity (CSNK1D (human)): 97.2%
- residual activity (CSNK2A1 (human)): 102%
- residual activity (EPHA8 (human)): 94.4%
- residual activity (IKBKB (human)): 94.2%
- residual activity (JAK2 JH1 JH2 (human)): 94.2%
- residual activity (JAK3 JH1 JH2 (human)): 95.4%
- residual activity (LCK (human)): 91.8%
- residual activity (LIMK1 (human)): 89.1%
- residual activity (LRRK2 (human)): 92%
- residual activity (MAP3K5 (human)): 99.4%
- residual activity (MAP3K9 (human)): 105%
- residual activity (MAP4K4 (human)): 92%
- residual activity (MAPK10 (human)): 88.7%
- residual activity (MAPK9 (human)): 97.1%
- residual activity (MARK4 (human)): 93.3%
- residual activity (MERTK (human)): 95.3%
- residual activity (MET (human)): 135%
- residual activity (MINK1 (human)): 90.8%
- residual activity (NEK3 (human)): 111%
- residual activity (OXSR1 (human)): 107%
- residual activity (PAK3 (human)): 98.3%
- residual activity (PIM2 (human)): 87%
- residual activity (PRKCI (human)): 95.4%
- residual activity (PRKD3 (human)): 100%
- residual activity (PRKG1 (human)): 95.7% and 98.9%
- residual activity (ROCK1 (human)): 105%
- residual activity (ROCK2 (human)): 95.4%
- residual activity (RPS6KA6 KD1 KD2 (human)): 104%
- residual activity (SGK2 (human)): 96.1%
- residual activity (SRPK3 (human)): 99.6%
- residual activity (TAOK2 (human)): 89.4%
- residual activity (TAOK3 (human)): 102%
- residual activity (TGFBR1 (human)): 103%
- residual activity (TSSK1B (human)): 93%
- residual activity (TSSK2 (human)): 98.3%
- residual activity [1]: 102%
- residual activity (VRK1 (human)): 91.9%

Values joined by “and” are separate entries in the source; they are usually repeats but may differ in a detail not shown here. Identical values can stand only once.
